Assay results from PubChem BioAssay (NCI).
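Briefly, cells in 96-well plates were exposed to five compound concentrations for 48 h, and endpoints were estimated by linear interpolation. At the GI50, growth is halved. TGI marks complete inhibition of growth.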

What was measured:
Experiment in all cases: growth of human tumour cells (NCI), 48 h
SK-MEL-2 melanoma = tested on: SK-MEL-2 melanoma
RXF 393 renal = tested on: RXF 393 renal
T-47D breast = tested on: T-47D breast
BT-549 breast = tested on: BT-549 breast
OVCAR-5 ovarian = tested on: OVCAR-5 ovarian
RPMI-8226 leukemia = tested on: RPMI-8226 leukemia
HCT-116 colon = tested on: HCT-116 colon
SR leukemia = tested on: SR leukemia
SF-295 CNS = tested on: SF-295 CNS
OVCAR-8 ovarian = tested on: OVCAR-8 ovarian
SK-MEL-28 melanoma = tested on: SK-MEL-28 melanoma
UACC-257 melanoma = tested on: UACC-257 melanoma
CCRF-CEM leukemia = tested on: CCRF-CEM leukemia
MOLT-4 leukemia = tested on: MOLT-4 leukemia
SF-539 CNS = tested on: SF-539 CNS
786-0 renal = tested on: 786-0 renal
M14 melanoma = tested on: M14 melanoma
NCI-H23 lung = tested on: NCI-H23 lung
SNB-19 CNS = tested on: SNB-19 CNS
HL-60(TB) leukemia = tested on: HL-60(TB) leukemia
HOP-62 NSCLC = tested on: HOP-62 NSCLC
UO-31 renal = tested on: UO-31 renal
OVCAR-4 ovarian = tested on: OVCAR-4 ovarian
NCI/ADR-RES ovarian = tested on: NCI/ADR-RES ovarian
MCF7 breast = tested on: MCF7 breast
SNB-75 CNS = tested on: SNB-75 CNS
MDA-MB-435 = tested on: MDA-MB-435
NCI-H460 lung = tested on: NCI-H460 lung
PC-3 prostate = tested on: PC-3 prostate
LOX IMVI melanoma = tested on: LOX IMVI melanoma
U251 CNS = tested on: U251 CNS
HT29 colon = tested on: HT29 colon
SW-620 colon = tested on: SW-620 colon
TK-10 renal = tested on: TK-10 renal
NCI-H322M lung = tested on: NCI-H322M lung
UACC-62 melanoma = tested on: UACC-62 melanoma
A498 renal = tested on: A498 renal
DU-145 prostate = tested on: DU-145 prostate
IGROV1 ovarian = tested on: IGROV1 ovarian
SK-MEL-5 melanoma = tested on: SK-MEL-5 melanoma
CAKI-1 renal = tested on: CAKI-1 renal
K-562 leukemia = tested on: K-562 leukemia
A549 NSCLC = tested on: A549 NSCLC
ACHN renal = tested on: ACHN renal
MALME-3M melanoma = tested on: MALME-3M melanoma
COLO 205 colon = tested on: COLO 205 colon
HCT-15 colon = tested on: HCT-15 colon
HCC-2998 colon = tested on: HCC-2998 colon
MDA-MB-231 breast = tested on: MDA-MB-231 breast
NCI-H226 lung = tested on: NCI-H226 lung
OVCAR-3 ovarian = tested on: OVCAR-3 ovarian
SN12C renal = tested on: SN12C renal
SK-OV-3 ovarian = tested on: SK-OV-3 ovarian
KM12 colon = tested on: KM12 colon
SF-268 CNS = tested on: SF-268 CNS
HOP-18 NSCLC = tested on: HOP-18 NSCLC
EKVX NSCLC = tested on: EKVX NSCLC
SNB-78 CNS = tested on: SNB-78 CNS
HOP-92 NSCLC = tested on: HOP-92 NSCLC
DMS 114 small cell lung = tested on: DMS 114 small cell lung
KM20L2 colon = tested on: KM20L2 colon
M19-MEL melanoma = tested on: M19-MEL melanoma
XF 498 CNS = tested on: XF 498 CNS
LXFL 529 NSCLC = tested on: LXFL 529 NSCLC
DLD-1 colon = tested on: DLD-1 colon
RXF-631 renal = tested on: RXF-631 renal

Nc1ccc(N(CCCl)CCCl)cc1
GI50 (SK-MEL-2 melanoma): 17.3 µM | TGI (SK-MEL-2 melanoma): 42.8 µM | GI50 (RXF 393 renal): 4.27 µM | TGI (RXF 393 renal): 20.1 µM | GI50 (T-47D breast): 4.5 µM | TGI (T-47D breast): 23.2 µM | GI50 (BT-549 breast): 7.26 µM | TGI (BT-549 breast): 35.4 µM | GI50 (OVCAR-5 ovarian): 14.6 µM | TGI (OVCAR-5 ovarian): 51.2 µM | GI50 (RPMI-8226 leukemia): 10.1 µM | TGI (RPMI-8226 leukemia): 63.8 µM | GI50 (HCT-116 colon): 5.81 µM | TGI (HCT-116 colon): > 100 µM | GI50 (SR leukemia): 0.417 µM | TGI (SR leukemia): > 100 µM | GI50 (SF-295 CNS): 2.65 µM | TGI (SF-295 CNS): 49.5 µM | GI50 (OVCAR-8 ovarian): 6.07 µM | TGI (OVCAR-8 ovarian): > 100 µM | GI50 (SK-MEL-28 melanoma): 20.5 µM | TGI (SK-MEL-28 melanoma): 65.1 µM | GI50 (UACC-257 melanoma): 16.6 µM | TGI (UACC-257 melanoma): 93.3 µM | GI50 (CCRF-CEM leukemia): 0.453 µM | TGI (CCRF-CEM leukemia): > 100 µM | GI50 (MOLT-4 leukemia): 1.05 µM | TGI (MOLT-4 leukemia): > 100 µM | GI50 (SF-539 CNS): 1.84 µM | TGI (SF-539 CNS): 18.6 µM | GI50 (786-0 renal): 3.87 µM | TGI (786-0 renal): > 100 µM | GI50 (M14 melanoma): 7.06 µM | TGI (M14 melanoma): 80.9 µM | GI50 (NCI-H23 lung): 3.56 µM | TGI (NCI-H23 lung): 49.4 µM | GI50 (SNB-19 CNS): 9.26 µM | TGI (SNB-19 CNS): > 100 µM | GI50 (HL-60(TB) leukemia): 0.647 µM | TGI (HL-60(TB) leukemia): 19.8 µM | GI50 (HOP-62 NSCLC): 4.1 µM | TGI (HOP-62 NSCLC): 34.6 µM | GI50 (UO-31 renal): 3.94 µM | TGI (UO-31 renal): 47.4 µM | GI50 (OVCAR-4 ovarian): 26.7 µM | TGI (OVCAR-4 ovarian): > 100 µM | GI50 (NCI/ADR-RES ovarian): 5.45 µM | TGI (NCI/ADR-RES ovarian): > 100 µM | GI50 (MCF7 breast): 0.932 µM | TGI (MCF7 breast): 16.4 µM | GI50 (SNB-75 CNS): 14.5 µM | TGI (SNB-75 CNS): > 100 µM | GI50 (MDA-MB-435): 12.9 µM | TGI (MDA-MB-435): 28 µM | GI50 (NCI-H460 lung): 0.671 µM | TGI (NCI-H460 lung): 84.4 µM | GI50 (PC-3 prostate): 13.3 µM | TGI (PC-3 prostate): > 100 µM | GI50 (LOX IMVI melanoma): 2.37 µM | TGI (LOX IMVI melanoma): 24 µM | GI50 (U251 CNS): 3.56 µM | TGI (U251 CNS): 58.3 µM | GI50 (HT29 colon): 17.1 µM | TGI (HT29 colon): > 100 µM | GI50 (SW-620 colon): 5.3 µM | TGI (SW-620 colon): 33.6 µM | GI50 (TK-10 renal): 21.4 µM | TGI (TK-10 renal): 63.3 µM | GI50 (NCI-H322M lung): 40.6 µM | TGI (NCI-H322M lung): > 100 µM | GI50 (UACC-62 melanoma): 5.8 µM | TGI (UACC-62 melanoma): 21.9 µM | GI50 (A498 renal): 11.9 µM | TGI (A498 renal): 30.2 µM | GI50 (DU-145 prostate): 4.12 µM | TGI (DU-145 prostate): > 100 µM | GI50 (IGROV1 ovarian): 10.2 µM | TGI (IGROV1 ovarian): 40.5 µM | GI50 (SK-MEL-5 melanoma): 13.4 µM | TGI (SK-MEL-5 melanoma): 37.1 µM | GI50 (CAKI-1 renal): 0.439 µM | TGI (CAKI-1 renal): 13.9 µM | GI50 (K-562 leukemia): 9.89 µM | TGI (K-562 leukemia): 68.4 µM | GI50 (A549 NSCLC): 8.1 µM | TGI (A549 NSCLC): > 100 µM | GI50 (ACHN renal): 0.554 µM | TGI (ACHN renal): 14.5 µM | GI50 (MALME-3M melanoma): 13.5 µM | TGI (MALME-3M melanoma): 36 µM | GI50 (COLO 205 colon): 13 µM | TGI (COLO 205 colon): 40.4 µM | GI50 (HCT-15 colon): 8.94 µM | TGI (HCT-15 colon): 62.6 µM | GI50 (HCC-2998 colon): 13.8 µM | TGI (HCC-2998 colon): 37.1 µM | GI50 (MDA-MB-231 breast): 20.8 µM | TGI (MDA-MB-231 breast): > 100 µM | GI50 (NCI-H226 lung): 9.03 µM | TGI (NCI-H226 lung): 30.2 µM | GI50 (OVCAR-3 ovarian): 10 µM | TGI (OVCAR-3 ovarian): 22.9 µM | GI50 (SN12C renal): 2.77 µM | TGI (SN12C renal): 77.5 µM | GI50 (SK-OV-3 ovarian): 11 µM | TGI (SK-OV-3 ovarian): 55.3 µM | GI50 (KM12 colon): 17 µM | TGI (KM12 colon): 57.4 µM | GI50 (SF-268 CNS): 2.65 µM | TGI (SF-268 CNS): 44.4 µM

CC1=CC2OC3CC(OC(=O)/C=C/C=C/C(OCCC4=CC(=O)OC4)C(C)O)C(C)(C2(CO)CC1)C31CO1 (stereo not drawn)
GI50 (HOP-18 NSCLC): 15.6 µM | GI50 (SK-MEL-2 melanoma): 2 µM | GI50 (RXF 393 renal): 1.8 µM | GI50 (OVCAR-5 ovarian): 5.31 µM | GI50 (EKVX NSCLC): 2.36 µM | GI50 (RPMI-8226 leukemia): 1.21 µM | GI50 (HCT-116 colon): 2.37 µM | GI50 (SR leukemia): 0.533 µM | GI50 (SF-295 CNS): 3.48 µM | GI50 (OVCAR-8 ovarian): 3.36 µM | GI50 (SK-MEL-28 melanoma): 2 µM | GI50 (UACC-257 melanoma): 3.12 µM | GI50 (CCRF-CEM leukemia): 1.31 µM | GI50 (MOLT-4 leukemia): 0.636 µM | GI50 (SF-539 CNS): 1.89 µM | GI50 (786-0 renal): 2.11 µM | GI50 (M14 melanoma): 1.46 µM | GI50 (NCI-H23 lung): 1.79 µM | GI50 (UO-31 renal): 8.77 µM | GI50 (OVCAR-4 ovarian): 4.04 µM | GI50 (SNB-78 CNS): 4.07 µM | GI50 (HOP-92 NSCLC): 1.82 µM | GI50 (NCI-H460 lung): 1.63 µM | GI50 (DMS 114 small cell lung): 2.32 µM | GI50 (LOX IMVI melanoma): 1.33 µM | GI50 (KM20L2 colon): 2.52 µM | GI50 (U251 CNS): 1.7 µM | GI50 (HT29 colon): 2.27 µM | GI50 (SW-620 colon): 2.53 µM | GI50 (TK-10 renal): 3.31 µM | GI50 (NCI-H322M lung): 8.87 µM | GI50 (M19-MEL melanoma): 1.94 µM | GI50 (UACC-62 melanoma): 2.12 µM | GI50 (IGROV1 ovarian): 1.99 µM | GI50 (SK-MEL-5 melanoma): 0.484 µM | GI50 (CAKI-1 renal): 3.25 µM | GI50 (K-562 leukemia): 1.37 µM | GI50 (A549 NSCLC): 3.18 µM | GI50 (ACHN renal): 4.55 µM | GI50 (XF 498 CNS): 1.98 µM | GI50 (MALME-3M melanoma): 1.48 µM | GI50 (COLO 205 colon): 2.1 µM | GI50 (HCT-15 colon): 2.51 µM | GI50 (HCC-2998 colon): 1.8 µM | GI50 (NCI-H226 lung): 3.28 µM | GI50 (OVCAR-3 ovarian): 2.2 µM | GI50 (LXFL 529 NSCLC): 0.647 µM | GI50 (SN12C renal): 3.15 µM | GI50 (DLD-1 colon): 2.04 µM | GI50 (RXF-631 renal): 3.84 µM | GI50 (SK-OV-3 ovarian): 4.02 µM | GI50 (KM12 colon): 2.62 µM | GI50 (SF-268 CNS): 2.96 µM
